The values below come from patent US20190046536A1, “Combination Therapy” (Eli Lilly and Company, priority 2016, published 2019).

The subject of the assay is deposited Aβ. As to the kind of experiment: Ex vivo target engagement, immunohistochemistry on fixed PDAPP brain sections. In kind it is binding. As to conditions: cryostat coronal sections from aged PDAPP mice (25-month old); Antibody I or II at 20 μg/mL; biotinylated 3D6 as positive control. From the text: Secondary HRP reagents specific for human IgG are employed and the deposited plaques are visualized with DAB-Plus (DAKO). Biotinylated murine 3D6 antibody followed by Step-HRP secondary is used as a positive control.

B1: Antibody I: anti-N3pGlu Abeta antibody with LC of SEQ ID NO: 12 and HC of SEQ ID NO: 11 (antibody)
heavy: QVQLVQSGAEVKKPGSSVKVSCKASGYTFTDYYINWVRQAPGQGLEWMGWINPGSGNTKYNEKFKGRVTITADESTSTAYMELSSLRSEDTAVYYCTREGETVYWGQGTLVTVSSASTKGPSVFPLAPSSKSTSGGTAALGCLVKDYFPEPVTVSWNSGALTSGVHTFPAVLQSSGLYSLSSVVTVPSSSLGTQTYICNVNHKPSNTKVDKKV[letters of human IgG1 Fc left out]
light: DVVMTQSPLSLPVTLGQPASISCKSSQSLLYSRGKTYLNWFQQRPGQSPRRLIYDVSKLDSGVPDRFSGSGSGTDFTLKISRVEAEDVGVYYCVQGTHYPFTFGQGTKLEIKRTVAAPSVFIFPPSDEQLKSGTASVVCLLNNFYPREAKVQWKVDNALQSGNSQESVTEQDSKDSTYSLSSTLTLSKADYEKHKVYACEVTHQGLSSPVTKSFNRGEC
For the molecule B1, the “labeling of deposited Aβ in PDAPP hippocampus” value was “labeled a subset of deposits”.

B2: Antibody II: anti-N3pGlu Abeta antibody with LC of SEQ ID NO: 13 and HC of SEQ ID NO: 11 (antibody)
heavy: QVQLVQSGAEVKKPGSSVKVSCKASGYTFTDYYINWVRQAPGQGLEWMGWINPGSGNTKYNEKFKGRVTITADESTSTAYMELSSLRSEDTAVYYCTREGETVYWGQGTLVTVSSASTKGPSVFPLAPSSKSTSGGTAALGCLVKDYFPEPVTVSWNSGALTSGVHTFPAVLQSSGLYSLSSVVTVPSSSLGTQTYICNVNHKPSNTKVDKKV[letters of human IgG1 Fc left out]
light: DIQMTQSPSTLSASVGDRVTITCKSSQSLLYSRGKTYLNWLQQKPGKAPKLLIYAVSKLDSGVPSRFSGSGSGTEFTLTISSLQPDDFATYYCVQGTHYPFTFGQGTKLEIKRTVAAPSVFIFPPSDEQLKSGTASVVCLLNNFYPREAKVQWKVDNALQSGNSQESVTEQDSKDSTYSLSSTLTLSKADYEKHKVYACEVTHQGLSSPVTKSFNRGEC
For B2, the “labeling of deposited Aβ in PDAPP hippocampus” value is on record as “labeled a subset of deposits”.
